From patent publication US9567339B2, “Primary carboxamides as BTK inhibitors” (AbbVie Inc., priority 2013, dated 2017) come the findings set out here.

The chains behind the UniProt entries cited, without tags or fusion partners. Residues count along the entry.
UniProt Q06187, 393-659 limits assumed: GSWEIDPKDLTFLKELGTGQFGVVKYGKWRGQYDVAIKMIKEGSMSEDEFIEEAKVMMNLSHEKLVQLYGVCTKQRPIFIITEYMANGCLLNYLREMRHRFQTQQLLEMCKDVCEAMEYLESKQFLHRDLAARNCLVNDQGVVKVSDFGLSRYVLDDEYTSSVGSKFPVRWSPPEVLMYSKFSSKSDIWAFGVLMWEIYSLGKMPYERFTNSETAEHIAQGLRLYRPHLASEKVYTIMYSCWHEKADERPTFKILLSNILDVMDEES

pIC50: −log10 of the molar value. Like-named read-outs stand apart in the source and are kept apart here.

The assay concerns the target BTK, recombinant human catalytic domain (aa 393-659) (Homo sapiens (Human), UniProt Q06187). Description: In vitro BTK kinase activity measured by time-resolved fluorescence resonance energy transfer (trFRET). Format: biochemical. The following applies: read-out: Btk IC50.

`Cc1c(NC(=O)[C@H]2CC[C@](O)(C(F)(F)F)CC2)cccc1-c1ccc(C(N)=O)c2[nH]c(C3=CCN(S(C)(=O)=O)CC3)cc12`: the pIC50 was greater than 7.00.

`C=CC(=O)Nc1cccc(-c2ccc(C(N)=O)c3[nH]c(-c4ccc(C(=O)N5CCOCC5)cc4)cc23)c1C`: the pIC50 (trFRET, 0.001 mM ATP, biotin-TYR1 peptide substrate) is greater than 7.00.

The pIC50 is the negative decadic logarithm of the IC50, by convention in mol/L.
